Assay results reported in publication PMC12731528, “High‐Affinity Peptide‐Drug Conjugate Ligands for the TRIM24 PHD and Bromodomain” (Chemistry (Weinheim an Der Bergstrasse, Germany), 2025).
Values joined by “and” are separate entries in the source; they are usually repeats but may differ in a detail not shown here. Identical values can stand only once. Like-named read-outs stand apart in the source and are kept apart here.

What was measured:
His6-TRIM24 (PHD-BRD) [1] = target: T1, His6-TRIM24 (PHD-BRD) (Homo sapiens, UniProt O15164); conditions: AlphaScreen® IC50, inhibition of TRIM24-H3K9Me3 (B1) binding by PDCs and controls; mean of triplicate ± SEM
T1 sequence (O15164 825-1007): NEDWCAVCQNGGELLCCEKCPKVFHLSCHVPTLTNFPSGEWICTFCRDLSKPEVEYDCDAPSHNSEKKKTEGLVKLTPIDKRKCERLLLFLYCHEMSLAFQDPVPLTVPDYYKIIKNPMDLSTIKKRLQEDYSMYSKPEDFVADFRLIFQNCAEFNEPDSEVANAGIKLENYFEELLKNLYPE

TRIM24 (PHD‐BRD) = target: T2, TRIM24 (PHD‐BRD) (Homo sapiens, UniProt O15164); experiment: BROMOscan assay, TRIM24; type: binding
T2 sequence (O15164 826-1004 limits assumed): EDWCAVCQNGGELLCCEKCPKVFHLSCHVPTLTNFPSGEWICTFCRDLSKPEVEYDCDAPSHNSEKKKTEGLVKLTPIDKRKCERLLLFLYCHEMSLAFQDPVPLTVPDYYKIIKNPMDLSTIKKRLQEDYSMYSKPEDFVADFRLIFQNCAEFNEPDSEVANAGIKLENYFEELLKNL

His6-TRIM24 (PHD-BRD) [2] = target: T1, His6-TRIM24 (PHD-BRD); experiment: AlphaScreen competition assay, displacement of biotinylated H3(1–27)K9Me3K18Ac (B3); parameters: N825–E1007; made in house; host or cells: Escherichia coli BL21-Gold (DE3), plasmid pNIC28-Bsa4; conditions: inhibition of TRIM24-H3K9Me3K18Ac (B3) binding, mean of triplicate ± SEM
His6-TRIM24 (PHD-BRD) [3] = target: T1, His6-TRIM24 (PHD-BRD); experiment: AlphaScreen competition assay, displacement of biotinylated H3(1–27)K18Ac (B2); parameters: N825–E1007; made in house; host or cells: Escherichia coli BL21-Gold (DE3), plasmid pNIC28-Bsa4; conditions: inhibition of TRIM24-H3K18Ac (B2) binding; mean of triplicate ± SEM
[4] = BROMOscan TRIM24 PHD-BRD Kd, mean of duplicate data ± 95% confidence interval
[5] = individual duplicate curves, read-out: BROMOscan TRIM24 Kd, single dose-response curve

CCCOc1cccc(Oc2cc3c(cc2NS(=O)(=O)c2cccc(C(=O)NCCOCCOCCOCCNC(=O)[C@H](CCCCN4Cc5ccccc5C4)NC(=O)[C@H](CCCNC(=N)N)NC(=O)[C@H](C)NC(=O)[C@@H](NC(=O)[C@H](CCC(N)=O)NC(=O)[C@H](CCCCN)NC(=O)[C@@H](NC(=O)[C@H](CCCNC(=N)N)NC(=O)[C@H](C)N)[C@@H](C)O)[C@@H](C)O)c2)n(C)c(=O)n3C)c1 [PDC5]
IC50 (His6-TRIM24 (PHD-BRD) [1]): 14.6 ± 0.3 nM | Kd (TRIM24 (PHD‐BRD); [4]): 0.22 ± 0.05 nM | Kd (TRIM24 (PHD‐BRD); [5]): 0.24 nM and 0.19 nM | IC50 (His6-TRIM24 (PHD-BRD) [2]): 28.8 ± 0.8 nM

CCCOc1cccc(Oc2cc3c(cc2NS(=O)(=O)c2cccc(C(=O)NCCOCCOCCNC(=O)[C@H](CCCCN4Cc5ccccc5C4)NC(=O)[C@H](CCCNC(=N)N)NC(=O)[C@H](C)NC(=O)[C@@H](NC(=O)[C@H](CCC(N)=O)NC(=O)[C@H](CCCCN)NC(=O)[C@@H](NC(=O)[C@H](CCCNC(=N)N)NC(=O)[C@H](C)N)[C@@H](C)O)[C@@H](C)O)c2)n(C)c(=O)n3C)c1 [PDC4]
IC50 (His6-TRIM24 (PHD-BRD) [1]): 4.7 ± 0.5 nM | IC50 (His6-TRIM24 (PHD-BRD) [3]): 4.8 ± 0.3 nM | Kd (TRIM24 (PHD‐BRD); [4]): 0.27 ± 0.19 nM | Kd (TRIM24 (PHD‐BRD); [5]): 0.17 nM and 0.36 nM
